{"source": "patent US10532109B2", "about": "“Peptide-DNA chimeras for treatment of HER overexpressing cancers” (ARIZONA BOARD OF REGENTS ON BEHALF OF ARIZONA STATE …, priority 2016, dated 2020)", "key": {"[1]": {"system": "BT474 human breast cancer cells (overexpression of HER2)", "conditions": "literature report; 72 hour exposure; cited from earlier work"}, "[2]": {"system": "BT474 human breast cancer cells (overexpression of HER2)", "assay": "Cancer cell inhibition assay (MTT), BT474", "format": "cell-based", "protocol": "BT474 human breast cancer cells (ATCC® HTB-20™, overexpression of HER2) and MDA-MB-231 human breast cancer cells (ATCC® HTB-26™, low expression of HER2 receptor) were cultured at 37° C. in a 5% CO2 atmosphere and grown in Gibco® RPMI 1640 medium supplemented with 10% fetal bovine serum (FBS) and 1% antibiotic-antimycotic mix antibiotic supplement before use.\nExponentially growing BT474 cells and MDA-MB-231 cells were harvested and plated in 96-well plates at a concentration of 2×10^4 cells/well for BT474 cells and 5×10^4 cells/well for MDA-MB231 cells. After incubation at 37° C. for 24 hours, the cells were treated with trastuzumab, DNA tetrahedron-affibody III and DNA tetrahedron-affibody-doxorubicin nanoparticle IV (1:50 III-doxorubicin) at different concentrations for an additional 48, 72, or 96 hours. Then 20 μL of MTT (5 mg/mL) was added to each well and the plates were incubated at 37° C. for 4 hours. The supernatant was discarded, and 100 μL of DMSO was added to each well. The absorbance was recorded at 490 nm after 15 minutes. Inhibition of cell growth was obtained by the following formula: […]\nData are reported as the mean of three independent experiments, each run in quintuplicate."}}}
{"substance": "trastuzumab", "values": [{"measurement": "concentration required for 30% cell growth inhibition (IC30)", "setting": "[1]", "value": 230, "unit": "nM"}, {"measurement": "dose dependence of inhibition of BT474 cells", "setting": "[2]", "value": "not dose-dependent"}, {"measurement": "inhibitory activity toward HER2 overexpressing breast cancer cells (in words)", "setting": "[2]; III compared with trastuzumab", "value": "very low activity"}, {"measurement": "highest inhibition of BT474 cells", "setting": "[2]; over the same concentration range (up to 100 nM), 72 or 96 hours", "value": "approximately 7%"}]}
